From patent US11273203B2, “Methods of mitigating toxic effects of vesicants and caustic gas” (dated 2022)
“And” between values parts separate entries of the source, which are not always exact repeats. Equal values may be shown once.

Tests used:
[1] = tested on: male Wistar rats exposed to nitrogen mustard (NM); experiment: NM-induced mortality and body weight; details: NM 1.7 mg/kg; TPOm 0.3 mg/kg s.c. 6 h following NM exposure; not powered to resolve significance; FIG. 6
[2] = tested on: male Wistar rats exposed to nitrogen mustard (NM); experiment: MRI (T2-weighted) measurement of NM-induced pulmonary edema; details: day 42 and day 70; TPOm at 6 h and Day 7, or 6 h, Day 7 and 14; compared to NM alone (p=0.0104 and p=0.0770)
[3] = tested on: male Wistar rats exposed to nitrogen mustard (NM); experiment: NM-induced pulmonary fibrosis, PTA-contrasted microCT fibrosis score; details: 70-day post exposure; TPOm 0.3 mg/kg, 2 or 3 doses; vehicle control 4.33; FIG. 5A

methoxypolyethyleneglycol20000-propionyl-L-Isoleucyl-L-Glutamyl-Glycyl-L-Prolyl-L-Threonyl-L-Leucyl-L-Arginyl-L-Glutaminyl-L-2-Naphthylalanyl-L-Leucyl-L-Alanyl-L-Alanyl-L-Arginyl-Sarcosyl-Ne-(methoxypolyethyleneglycol20000-propionyl-L-Isoleucyl-L-Glutamyl-Glycyl-L-Prolyl-L-Threonyl-L-Leucyl-L-Arginyl-L-Glutaminyl-L-2-Naphthylalanyl-L-Leucyl-L-Alanyl-L-Alanyl-L-Arginyl-Sarcosyl-)-Lysinamide
NM-induced mortality (survival) [1]: prolong life and resulted in fewer deaths | mean pulmonary edema volumes [2]: lower | fibrosis score [3]: 2.11 and 1.89
